# Results published in PubChem BioAssay AID1224905 (ICCB-Longwood Screening Facility, Harvard Medical School, 2016).
# Sequences of proteins named here, by UniProt entry; tags and fusion partners are left off.
# UniProt P08753, whole entry, looked up: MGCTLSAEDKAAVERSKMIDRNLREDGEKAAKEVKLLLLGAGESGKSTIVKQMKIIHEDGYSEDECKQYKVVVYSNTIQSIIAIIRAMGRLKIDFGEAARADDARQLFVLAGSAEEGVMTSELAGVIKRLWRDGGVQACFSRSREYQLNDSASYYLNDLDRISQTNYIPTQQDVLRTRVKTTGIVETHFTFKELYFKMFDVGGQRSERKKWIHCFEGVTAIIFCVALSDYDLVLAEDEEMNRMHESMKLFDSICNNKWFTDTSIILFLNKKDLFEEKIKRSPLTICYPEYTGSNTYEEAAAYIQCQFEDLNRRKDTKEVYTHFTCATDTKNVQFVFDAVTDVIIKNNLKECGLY
# Out of some 210,000 compounds screened, about 880 (0.42%) were called active.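 How the source made its calls: active means replicate mean at 85% of control or lower with very high polarization wells dropped (limit read from the data); inactive means the rest.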 The list comes from a sample in which actives are over-represented; it also holds similar structures and randomly drawn compounds.
# Target: Guanine nucleotide-binding protein G(i) subunit alpha-3 (Rattus norvegicus) (UniProt P08753)
# Assay: disruptors of GIV-Galphai3 protein-protein interaction – biochemical, fluorescence polarization, FITC-GIV GBA peptide, rat Galphai3, primary screen (AID 1224905);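 further: lower values mean more displacement of the GIV peptide from Galpha-i3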
# Conditions: Galpha-i3/FITC-GIV peptide fluorescence polarization, 90 min; active compounds read low; scaled: aluminum fluoride 0%, vehicle 100%
row,Compound,percent of control (FP)
1,O=C(NCc1ccco1)c1cc2nc(-c3ccc(Cl)c(Cl)c3)cc(C(F)(F)F)n2n1,101% (inactive)
2,Cn1c(=O)n(C)c2cc(N3CCOCC3)c(NS(=O)(=O)c3ccc4c(c3)CCCC4)cc21,103% (inactive)
3,O=C(O)c1cc(NS(=O)(=O)c2cc(F)ccc2F)cnc1N1CCC(N2CCCCC2)CC1,93.7% (inactive)
4,O=C(O)c1cc(NS(=O)(=O)c2ccc3c(c2)CCCC3)cnc1N1CCOCC1,80.8% (active)
5,O=C(CSc1nnc(C2COc3ccccc3O2)n1-c1ccccc1)c1cccc([N+](=O)[O-])c1 (stereo not drawn),99.2% (inactive)
6,COCCNC(=O)Cn1cc(/C=C2\C(=O)NC(=O)N(C3CCCCC3)C2=O)c2ccccc21,-38.3% (active)
7,COc1ccccc1N1C(=O)NC(=O)/C(=C/c2cn(C(C)=O)c3ccccc23)C1=O,118% (inactive)
8,Cc1cc(Br)ccc1N1C(=O)NC(=O)/C(=C/c2cn(CC(=O)N3CCOCC3)c3ccccc23)C1=O,103% (inactive)
9,NC(=O)c1nsc2c(=O)n(CC(=O)NCc3ccco3)cnc12,95.4% (inactive)
10,CCOC(=O)c1c(NC(=S)NC(=O)c2ccccc2)sc2c1CC(C)(CC)OC2 (stereo not drawn),107% (inactive)
11,Cc1cc(C)c2[nH]c(=O)c(NC(N)=S)nc2c1,109% (inactive)
12,Cc1c(C(=O)NCC2COc3ccccc3O2)sc2ncnc(N3CCCCC3C)c12 (stereo not drawn),103% (inactive)
13,COc1ccccc1N(Cc1nc2nc(C)cc(C)n2n1)C(=O)C(C)(C)C,105% (inactive)
14,COc1cc(-c2noc(-c3cc(-c4cc(C)ccc4C)n[nH]3)n2)ccc1OC(C)C,109% (inactive)
15,O=C(NCc1ccc2c(c1)OCO2)C1CCCN(S(=O)(=O)N2CCOCC2)C1 (stereo not drawn),105% (inactive)
16,O=C(O)CCC(C(=O)O)N1C(=O)/C(=C\c2ccco2)SC1=S (stereo not drawn),79.9% (active)
17,CN1C(=O)/C(=C/c2ccco2)SC1=Nc1cccc(C(=O)O)c1,103% (inactive)
18,CN1CCN(NC(=O)CCN2C(=O)/C(=C\c3ccco3)SC2=S)CC1,106% (inactive)
19,COc1ccc(S(=O)(=O)N2CCC(NC(=O)NCc3ccc(C)cc3)CC2)cc1,98.6% (inactive)
20,O=C(NCCCN1CCC(N2CCCCC2)CC1)c1nnc(C(=O)Nc2ccccc2)s1,101% (inactive)
21,O=C(CCc1ccccc1)N1CCN(C(=O)c2cc3cc(Br)ccc3[nH]2)CC1,108% (inactive)
22,CN1C=C/C(=C\C=C2/C=Nc3ccccc32)c2ccccc21,-76.3% (active)
23,CCCCN(CCCNC(=O)Nc1cn(CC(C)C)c(=O)c2ccccc12)Cc1ccccc1,98.7% (inactive)
24,COc1ccc(S(=O)(=O)Nc2cc(C(=O)O)cnc2N2CCC(Cc3ccccc3)CC2)cc1,102% (inactive)
25,COc1ccc(N2C(=O)/C(=C/c3cc(Cl)c(OCC(=O)O)c(Cl)c3)C(=O)NC2=S)cc1,94.6% (inactive)
26,Cc1ccc(N2C(=O)/C(=C/c3ccc(OCC(=O)O)c(Br)c3)C(=O)NC2=S)cc1,82.1% (active)
27,COC(=O)COc1ccc(/C=C2\C(=O)NC(=S)N(c3ccc(Br)cc3)C2=O)cc1OC,104% (inactive)

row,Compound,percent of control (FP)
1,Cc1oc(C2CCN(C(=O)Cc3ccsc3)CC2)nc1C(=O)N1CCCC1,99.3% (inactive)
2,CC(C)CC(C(=O)Nc1ccc(Cl)cc1)N1C(=O)c2ccccc2C1=O (stereo not drawn),108% (inactive)
3,CCOC(=O)c1c(NC(=O)C(C)Sc2nnc(CNC(=O)c3cccs3)n2C2CCCCC2)sc2c1CCCC2 (stereo not drawn),109% (inactive)
4,CC[n+]1c(C)n(-c2ccccc2)c2ccc(N)cc21,101% (inactive)
5,CC[n+]1c(/C=C/C=C2\N(C)c3ccccc3C2(C)C)n(-c2ccccc2)c2ccc(Cl)cc21,-32.2% (active)
6,COc1ccccc1CNC(=O)C1CCCN1c1nn2c(=O)cc(C)nc2s1 (stereo not drawn),96.8% (inactive)
7,O=C(/C=C/c1ccccc1)Nc1cc(C(=O)N2CCc3ccccc3C2)ccc1N1CC2CC(C1)c1cccc(=O)n1C2 (stereo not drawn),108% (inactive)
8,CCNc1cc(Nc2ccccc2)c2c3c(onc13)-c1ccccc1C2=O,104% (inactive)
9,CCOC(=O)N1CCN(c2cc(Nc3c(C)cc(C)cc3C)c3c4c(onc24)-c2ccccc2C3=O)CC1,140% (inactive)
10,CCN(CC)c1cc(NC2CCCCC2)c2c3c(onc13)-c1ccccc1C2=O,-7.19% (active)
11,CC1CCN(S(=O)(=O)c2ccc3nn(CC(=O)OC(C)C)c(=O)n3c2)CC1,103% (inactive)
12,COc1ccccc1-c1c(C(F)(F)F)oc2c(CN3CCN(C)CC3)c(O)ccc2c1=O,102% (inactive)
13,Cc1nn(CCC(=O)NC2CCCC2)c(=O)c2nn(-c3ccccc3)c(C)c12,98.5% (inactive)
14,CC(C)c1ccc(NC(=O)c2ccc3c(O)c(S(=O)(=O)c4ccccc4)c(=O)[nH]c3c2)cc1,98.9% (inactive)
15,CC(=O)Nc1ccc(NS(=O)(=O)c2cc(S(=O)(=O)Nc3ccc(NC(C)=O)cc3)c3cccc4c3c2NC4=O)cc1,108% (inactive)
16,CC(=O)Nc1ccc(Nc2c3c4c(cccc4[nH]c2=O)C(=O)c2ccccc2-3)cc1,60.9% (active)
17,CCC(C)OC(=O)C1=C(C)NC2=C(C(=O)CC(c3ccc(OC)cc3)C2)C1c1cc2c(cc1[N+](=O)[O-])OCO2 (stereo not drawn),103% (inactive)
18,CCCCc1nnc2sc(-c3cccc(N(C)C)c3)nn12,97.3% (inactive)
19,Cc1nn(C)c(C)c1CCN(C)C(=O)Nc1ccc(Br)cc1F,105% (inactive)
20,COc1ccc(-n2ccc(=O)c(-c3nc(-c4ccc(F)c(Cl)c4)no3)n2)cc1,102% (inactive)
21,Fc1cccc(CNC2=NCCNC23CCCCCC3)c1,112% (inactive)
22,COc1ccc(N2CCN(C(C)=C3C(=O)c4ccccc4C3=O)CC2)cc1,97.8% (inactive)
23,COC1=C(N2CCOCC2)C(=O)c2ccccc2C1=O,81.8% (active)
24,Cc1cc(N2CCOCC2)ccc1C=C1C(=O)c2ccccc2C1=O,123% (inactive)
25,Nc1nc(=O)n(C2OC(CO)C(O)C2O)cc1Br (stereo not drawn),107% (inactive)
26,CCN1CCN(Cc2c(O)ccc3c(=O)c(Oc4ccccc4Br)c(C(F)(F)F)oc23)CC1,96.7% (inactive)
